Counter-ions that a name gives are not always drawn.
Key:
[1] = target: T1, OATP1B1 (Homo sapiens, UniProt Q9Y6L6); test: Prediction of clinical drug-drug interactions; conditions: R=1+fu×Iin,max/IC50, ES as substrate; oral dose listed per drug in Table 3
[2] = target: T1, OATP1B1; conditions: 5 nmol/l [3H]-CER; concentrations up to 100 µmol/l
[3] = target: T1, OATP1B1; conditions: 20 nmol/l [3H]-ES; concentrations up to 100 µmol/l

Chains of the proteins cited; added tags and fusions are not shown. Lines headed by an entry give the natural chain unless they say otherwise; changes in a name come on top.
UniProt Q9Y6L6: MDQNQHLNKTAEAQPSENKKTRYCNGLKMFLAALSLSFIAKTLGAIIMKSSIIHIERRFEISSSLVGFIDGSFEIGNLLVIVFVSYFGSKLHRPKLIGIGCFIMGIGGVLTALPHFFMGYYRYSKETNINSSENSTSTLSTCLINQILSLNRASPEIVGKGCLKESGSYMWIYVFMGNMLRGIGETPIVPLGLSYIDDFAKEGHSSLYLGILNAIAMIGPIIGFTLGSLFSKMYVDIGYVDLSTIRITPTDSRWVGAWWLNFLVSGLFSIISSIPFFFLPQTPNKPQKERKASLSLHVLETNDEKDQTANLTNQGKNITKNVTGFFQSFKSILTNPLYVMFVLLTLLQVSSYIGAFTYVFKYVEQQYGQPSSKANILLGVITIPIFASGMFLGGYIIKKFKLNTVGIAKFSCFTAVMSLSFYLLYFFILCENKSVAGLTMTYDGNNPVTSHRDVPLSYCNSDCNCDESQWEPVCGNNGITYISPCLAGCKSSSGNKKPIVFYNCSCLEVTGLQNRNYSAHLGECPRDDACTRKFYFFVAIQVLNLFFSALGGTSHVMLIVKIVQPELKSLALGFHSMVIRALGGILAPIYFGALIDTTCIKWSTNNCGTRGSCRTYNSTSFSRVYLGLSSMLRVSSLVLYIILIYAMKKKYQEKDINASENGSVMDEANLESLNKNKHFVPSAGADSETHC

R (ES) [1]: 1.00 | Inhibition of OATP1B1-mediated uptake of cerivastatin (in words) [2]: inhibited | Inhibition of OATP1B1-mediated uptake of ES (in words) [3]: inhibited
Compound: CN(CCOc1ccc(CC2SC(=O)NC2=O)cc1)c1ccccn1 (stereo not drawn) [Rosiglitazone, Rosiglitazone-potassium salt]

— PMC3894639 (Pharmacogenetics and genomics, 2013)
